ChEMBL document CHEMBL4130567, “Discovery of Thiophene[3,2-d]pyrimidine Derivatives as Potent HIV-1 NNRTIs Targeting the Tolerant Region I of NNIBP” (ACS Med Chem Lett, 2017)

Biological target: Human immunodeficiency virus type 1 reverse transcriptase (Human immunodeficiency virus 1, UniProt Q72547)
Assay: Inhibition of recombinant wild type HIV1 reverse transcriptase using DIG-labeled dUTP/biotin-labeled dUTP and dTTP as template and viral nucleotides assessed as decrease in biotin-dUTP incorporation after 1 hr by ELISA

Cc1cc(C#N)cc(C)c1Oc1nc(Nc2ccc(C#N)cc2)nc(N)c1Br [ETRAVIRINE]
IC50: 1000 nM
